# Ab-95 light chain CDR variants: yeast mating affinities

From the AlphaSeq antibody data of Engelhart et al. 2022 (doi:10.1038/s41597-022-01779-4), copy in the FLAb collection.

All variants were tested on one target, the spike HR2 peptide PDVDLGDISGINAS (SARS-CoV-2).

Parent: Ab-95, a human scFv built as VH, a (GGGGS)3 linker, VL. Only the CDRs of the light chain vary.
VH: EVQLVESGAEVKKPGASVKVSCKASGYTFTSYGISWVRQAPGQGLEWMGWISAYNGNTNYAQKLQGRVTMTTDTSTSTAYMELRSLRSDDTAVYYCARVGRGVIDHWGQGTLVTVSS
VL: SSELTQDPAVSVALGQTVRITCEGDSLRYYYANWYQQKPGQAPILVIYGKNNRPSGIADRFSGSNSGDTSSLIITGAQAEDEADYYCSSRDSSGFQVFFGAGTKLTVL

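The parent was found by panning a naive human phage display library on the peptide. The library (AAYL52) carries one to three amino acid substitutions per variant, with no insertions or deletions. The scFvs were displayed on barcoded MATa yeast, the peptide on MATalpha yeast. The frequency of each diploid, read from paired DNA barcodes, reflects how well the two displayed proteins bind. The ratio of observed to expected reads was calibrated, replicate by replicate, on BCL2-family standards whose Kd was known from biolayer interferometry. The assay was run in three technical replicates.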

The parent's light chain CDRs are EGDSLRYYYAN, GKNNRPS, SSRDSSGFQVF; each variant's own CDRs replace them letter for letter.
All variants listed here change S93 of the VL, counted from its first residue.
Each Kd is an estimate from the mating assay, the geometric mean of the replicates in which the pair was seen; lower is stronger.
Where no diploid with the target was found in any replicate, the entry reads "nd": below detection, most likely a poor binder, though not proof of it.
Entries are sorted by rising average, undetected variants last.
Background: pairings of library AAYL52 with three empty control strains gave a value in 28% of cases (median 8.2 µM, 5th percentile 800 nM). Values in that range, when seen in few replicates, are hard to tell from nonspecific mating.

Variant IGDSLRYYNAN / GKNNRPS / SSRDSMGFQVF showed 64 nM (3 of 3 replicates). Variant EGDSLRYMYAN / GKNIRPS / SSRDSLGFQVF gave 75 nM (3 of 3 replicates). With EGDSLRYYYAN / GKNNRPS / SSRDCTGFYVF the result was 210 nM (3 of 3 replicates). Variant EGDSLRYRYAN / GKNNRPS / SSRDSGGFQVQ gave 230 nM (3 of 3 replicates). For EGDSLRYWYAN / GKNNRPS / SSRDSEGFNVF, the assay gave 320 nM (3 of 3 replicates). With EGDSLRYYYAN / GKNNRPS / SSRDSRAFQVF the result was 510 nM (3 of 3 replicates).

With EGDSLDYYYAN / GKNLRPS / SSRDSNGFQVF the result was 640 nM (3 of 3 replicates). For EGMSLRYYYAN / GKNNRPS / SSRDSQGFQVF, the assay gave 660 nM (3 of 3 replicates). With EGDDLRYYYAN / GKNNRPS / SSRCSKGFQVF the result was 700 nM (3 of 3 replicates). Variant EGDSLRYYYAN / GKNNRDS / QSRDSLGFQVF gave 840 nM (2 of 3 replicates). With EGDALAYYYAN / GKNNRPS / SSRDSKGFQVF the result was 950 nM (3 of 3 replicates). For EGDSLRYYYAN / GKNNRPS / SSRHSVGFQVF, the assay gave 1.3 µM (3 of 3 replicates).

For EGDSLRYYYAN / GKNNRHS / SHRDSAGFQVF, the assay gave 1.8 µM (2 of 3 replicates). Variant EGDSLRYYYAN / GKNNAPS / SSRDSFGFQVY showed 2.1 µM (2 of 3 replicates). Variant YGDSLRYYYAN / GKNNGPS / SSRDSDGFQVF gave 4.7 µM (2 of 3 replicates). Variant ETDSLRYYYAN / GKNNRPS / SSRDSQGFEVF gave 4.8 µM (1 of 3 replicates). For ETDSLRYYYAN / GKNVRPS / SSRDSLGFQVF, the assay gave 5.6 µM (1 of 3 replicates). Variant ERDSLRYYYAN / GKNNRPI / SSRDSPGFQVF showed 6.0 µM (3 of 3 replicates).

Variant IGDSLRYYYAN / GKNNRPS / SSRDSWGFQVF gave 6.5 µM (2 of 3 replicates). For EGDSLRYYYAN / GKNLRFS / SSRDSPGFQVF, the assay gave 6.9 µM (1 of 3 replicates). For EGDLLRYYYAN / GKNNRPS / SSRDLTGFQVF, the assay gave 8.9 µM (1 of 3 replicates). For EGDSNRNYYAN / GKNNRPS / SSRDSRGFQVF, the assay gave 9.3 µM (2 of 3 replicates). Variant EGDSLRYYYAN / GKNNRPS / SSRDSEGFQAF showed 11 µM (1 of 3 replicates). Variant EGDSLRYYYAI / GKNNRPS / SSRDFRGFQVF showed 15 µM (1 of 3 replicates).

For EGDSLRYYYAN / GKNNICS / SSRDSDGFQVF, the assay gave 29 µM (3 of 3 replicates). For EYDSLRYYYAN / GKNNRPS / SSRDSGIFQVF, the assay gave 36 µM (2 of 3 replicates). Variant ERDSLRYYYAN / GKNNRPS / SLRDSPGFQVF showed 44 µM (1 of 3 replicates). For EGDSLRYYYAA / GKNNKPS / SSRDSWGFQVF, the assay gave 45 µM (1 of 3 replicates). Variant EGDSLRYYYAT / GKNNRPS / SSRDYWGFQVF showed 58 µM (1 of 3 replicates). Variant PGDSLRYYYAN / GKNNRPS / SSIDSKGFQVF gave 68 µM (3 of 3 replicates).

For EGDSLWYYYAN / GKNNRPS / PSRDSFGFQVF, the assay gave 280 µM (2 of 3 replicates). With EGDSLRYYYAN / GKNNRQS / SPRDSNGFQVF the result was nd (0 of 3 replicates). Variant EGDSLRYYYDN / GKNNRPS / SSWDSAGFQVF showed nd (0 of 3 replicates). With EGDSLRYYYAN / YKNNRRS / SSRDSEGFQVF the result was nd (0 of 3 replicates). With EQDSLRYYVAN / GKNNRPS / SSRDSNGFQVF the result was nd (0 of 3 replicates).

The first 2 variants above that were never detected:

{"CDR-L1": "EGDSLRYYYAN", "CDR-L2": "GKNNRQS", "CDR-L3": "SPRDSNGFQVF", "Kd (apparent)": "nd", "seen in": "0/3"}
{"CDR-L1": "EGDSLRYYYDN", "CDR-L2": "GKNNRPS", "CDR-L3": "SSWDSAGFQVF", "Kd (apparent)": "nd", "seen in": "0/3"}

In this assay the parent's reference entry averaged 200 nM; its copy inside this library read 180 nM.